ChEMBL document CHEMBL6121009, “Identification of a selective pyruvate dehydrogenase kinase 1 (PDHK1) chemical probe by virtual screening” (Eur J Med Chem, 2025)
Active and inactive are the calls of the source. The rule behind the calls is not given here.

The chains behind the UniProt entries cited, without tags or fusion partners. Where a name states a change or a piece, a line headed by the entry shows the natural chain unless it says otherwise.
UniProt P29597: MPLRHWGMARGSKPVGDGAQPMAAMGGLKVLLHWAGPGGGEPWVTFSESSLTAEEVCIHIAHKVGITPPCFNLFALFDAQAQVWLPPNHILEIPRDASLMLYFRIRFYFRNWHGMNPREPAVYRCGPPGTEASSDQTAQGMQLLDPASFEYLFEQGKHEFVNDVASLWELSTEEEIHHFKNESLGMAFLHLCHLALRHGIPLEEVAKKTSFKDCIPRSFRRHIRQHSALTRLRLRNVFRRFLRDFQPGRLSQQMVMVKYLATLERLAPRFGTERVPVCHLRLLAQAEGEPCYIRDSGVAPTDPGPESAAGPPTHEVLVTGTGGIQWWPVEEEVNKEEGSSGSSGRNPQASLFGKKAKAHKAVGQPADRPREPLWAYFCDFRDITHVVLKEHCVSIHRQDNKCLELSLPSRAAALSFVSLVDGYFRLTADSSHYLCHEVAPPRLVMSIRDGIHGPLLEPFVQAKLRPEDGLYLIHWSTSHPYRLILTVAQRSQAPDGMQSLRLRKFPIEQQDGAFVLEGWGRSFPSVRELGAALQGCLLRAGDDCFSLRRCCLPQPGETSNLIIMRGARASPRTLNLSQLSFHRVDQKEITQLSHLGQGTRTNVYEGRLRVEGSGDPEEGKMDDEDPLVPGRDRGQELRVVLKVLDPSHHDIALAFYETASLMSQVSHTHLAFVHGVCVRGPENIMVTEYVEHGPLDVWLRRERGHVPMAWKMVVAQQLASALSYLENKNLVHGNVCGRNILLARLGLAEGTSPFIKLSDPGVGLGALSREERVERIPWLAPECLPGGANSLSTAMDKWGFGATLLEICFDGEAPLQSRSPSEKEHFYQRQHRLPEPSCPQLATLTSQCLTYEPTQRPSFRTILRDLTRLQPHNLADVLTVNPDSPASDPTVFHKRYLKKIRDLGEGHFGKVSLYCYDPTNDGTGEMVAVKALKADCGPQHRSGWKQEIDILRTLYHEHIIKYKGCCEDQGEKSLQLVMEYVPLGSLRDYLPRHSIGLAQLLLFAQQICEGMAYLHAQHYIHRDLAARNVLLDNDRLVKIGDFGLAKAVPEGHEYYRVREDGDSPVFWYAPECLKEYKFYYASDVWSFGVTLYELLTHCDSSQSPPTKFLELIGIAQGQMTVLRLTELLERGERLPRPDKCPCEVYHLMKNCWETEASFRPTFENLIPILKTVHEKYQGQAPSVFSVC
UniProt O43741: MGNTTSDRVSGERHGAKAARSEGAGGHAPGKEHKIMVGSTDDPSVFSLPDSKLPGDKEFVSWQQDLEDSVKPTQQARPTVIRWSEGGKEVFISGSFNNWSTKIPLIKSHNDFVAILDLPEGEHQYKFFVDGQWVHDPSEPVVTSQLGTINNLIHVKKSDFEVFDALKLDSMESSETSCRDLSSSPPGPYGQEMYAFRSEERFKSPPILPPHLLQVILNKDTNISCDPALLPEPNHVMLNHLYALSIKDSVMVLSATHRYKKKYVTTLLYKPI
UniProt Q9UGJ0: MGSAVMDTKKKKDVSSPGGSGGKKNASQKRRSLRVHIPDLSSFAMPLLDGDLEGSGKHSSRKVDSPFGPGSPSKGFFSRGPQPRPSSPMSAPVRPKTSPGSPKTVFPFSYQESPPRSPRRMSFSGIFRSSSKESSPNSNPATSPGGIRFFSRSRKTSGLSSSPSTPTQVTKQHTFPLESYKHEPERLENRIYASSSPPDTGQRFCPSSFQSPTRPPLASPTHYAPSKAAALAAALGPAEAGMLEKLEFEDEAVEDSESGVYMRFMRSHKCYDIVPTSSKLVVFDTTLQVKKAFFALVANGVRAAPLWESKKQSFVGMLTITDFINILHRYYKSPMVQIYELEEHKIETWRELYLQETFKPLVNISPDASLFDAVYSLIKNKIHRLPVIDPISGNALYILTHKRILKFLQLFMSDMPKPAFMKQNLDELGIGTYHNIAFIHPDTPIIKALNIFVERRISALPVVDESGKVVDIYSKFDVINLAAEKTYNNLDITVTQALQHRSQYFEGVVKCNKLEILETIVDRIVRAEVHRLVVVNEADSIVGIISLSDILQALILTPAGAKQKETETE
UniProt Q16654, whole entry, looked up: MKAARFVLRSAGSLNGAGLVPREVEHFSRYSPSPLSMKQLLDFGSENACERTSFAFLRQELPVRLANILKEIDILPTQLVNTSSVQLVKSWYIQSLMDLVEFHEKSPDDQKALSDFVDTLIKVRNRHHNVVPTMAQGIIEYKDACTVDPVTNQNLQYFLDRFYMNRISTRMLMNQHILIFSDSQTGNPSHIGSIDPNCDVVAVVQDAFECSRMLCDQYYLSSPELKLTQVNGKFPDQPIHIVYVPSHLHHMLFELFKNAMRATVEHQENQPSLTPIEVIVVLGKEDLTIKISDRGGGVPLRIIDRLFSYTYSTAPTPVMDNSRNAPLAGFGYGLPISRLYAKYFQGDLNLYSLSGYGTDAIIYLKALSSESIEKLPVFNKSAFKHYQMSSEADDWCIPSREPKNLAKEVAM
UniProt Q06187: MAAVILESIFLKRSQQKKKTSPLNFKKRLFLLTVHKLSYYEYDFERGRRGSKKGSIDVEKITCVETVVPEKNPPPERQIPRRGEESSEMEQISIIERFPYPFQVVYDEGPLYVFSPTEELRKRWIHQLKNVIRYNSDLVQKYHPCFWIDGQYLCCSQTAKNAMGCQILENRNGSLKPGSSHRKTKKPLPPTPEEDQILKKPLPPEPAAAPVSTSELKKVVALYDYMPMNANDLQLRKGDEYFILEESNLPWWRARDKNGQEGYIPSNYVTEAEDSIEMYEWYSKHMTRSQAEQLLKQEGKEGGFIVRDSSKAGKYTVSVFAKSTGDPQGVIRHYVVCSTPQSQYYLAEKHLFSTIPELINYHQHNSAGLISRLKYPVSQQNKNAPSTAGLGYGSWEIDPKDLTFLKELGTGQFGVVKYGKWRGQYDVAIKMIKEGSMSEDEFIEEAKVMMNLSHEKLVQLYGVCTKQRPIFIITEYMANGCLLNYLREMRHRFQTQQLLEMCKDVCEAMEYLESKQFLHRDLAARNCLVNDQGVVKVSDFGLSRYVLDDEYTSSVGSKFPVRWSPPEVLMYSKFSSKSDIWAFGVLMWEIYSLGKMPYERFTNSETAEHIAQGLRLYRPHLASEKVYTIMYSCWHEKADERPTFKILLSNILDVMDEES
UniProt Q15120, whole entry, looked up: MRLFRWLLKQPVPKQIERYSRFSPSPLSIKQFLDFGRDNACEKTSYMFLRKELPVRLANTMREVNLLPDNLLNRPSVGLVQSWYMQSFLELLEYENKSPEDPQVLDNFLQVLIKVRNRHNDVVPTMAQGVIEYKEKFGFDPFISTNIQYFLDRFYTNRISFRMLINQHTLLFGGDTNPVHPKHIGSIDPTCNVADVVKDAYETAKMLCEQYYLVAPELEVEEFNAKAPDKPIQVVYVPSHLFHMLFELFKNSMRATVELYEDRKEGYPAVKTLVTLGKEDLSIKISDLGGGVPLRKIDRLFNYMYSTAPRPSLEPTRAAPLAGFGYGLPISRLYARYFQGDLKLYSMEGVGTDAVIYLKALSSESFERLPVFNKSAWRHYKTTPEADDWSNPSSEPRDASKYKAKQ
UniProt P54619: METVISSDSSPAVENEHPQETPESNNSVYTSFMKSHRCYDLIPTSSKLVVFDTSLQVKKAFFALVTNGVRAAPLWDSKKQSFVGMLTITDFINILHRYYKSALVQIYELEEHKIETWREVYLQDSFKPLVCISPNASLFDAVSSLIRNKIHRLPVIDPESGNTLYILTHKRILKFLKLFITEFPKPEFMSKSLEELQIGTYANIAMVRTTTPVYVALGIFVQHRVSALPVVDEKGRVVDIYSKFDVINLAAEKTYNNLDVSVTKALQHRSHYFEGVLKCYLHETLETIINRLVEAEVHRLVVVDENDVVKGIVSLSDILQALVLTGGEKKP
UniProt Q9Y478: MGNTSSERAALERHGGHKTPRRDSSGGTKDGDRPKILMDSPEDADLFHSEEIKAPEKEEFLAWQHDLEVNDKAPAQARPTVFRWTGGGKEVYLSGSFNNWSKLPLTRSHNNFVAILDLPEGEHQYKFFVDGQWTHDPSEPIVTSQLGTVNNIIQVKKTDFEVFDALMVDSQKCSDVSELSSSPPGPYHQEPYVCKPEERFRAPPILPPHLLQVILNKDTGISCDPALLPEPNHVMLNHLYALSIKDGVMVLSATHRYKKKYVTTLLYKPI
UniProt Q13131: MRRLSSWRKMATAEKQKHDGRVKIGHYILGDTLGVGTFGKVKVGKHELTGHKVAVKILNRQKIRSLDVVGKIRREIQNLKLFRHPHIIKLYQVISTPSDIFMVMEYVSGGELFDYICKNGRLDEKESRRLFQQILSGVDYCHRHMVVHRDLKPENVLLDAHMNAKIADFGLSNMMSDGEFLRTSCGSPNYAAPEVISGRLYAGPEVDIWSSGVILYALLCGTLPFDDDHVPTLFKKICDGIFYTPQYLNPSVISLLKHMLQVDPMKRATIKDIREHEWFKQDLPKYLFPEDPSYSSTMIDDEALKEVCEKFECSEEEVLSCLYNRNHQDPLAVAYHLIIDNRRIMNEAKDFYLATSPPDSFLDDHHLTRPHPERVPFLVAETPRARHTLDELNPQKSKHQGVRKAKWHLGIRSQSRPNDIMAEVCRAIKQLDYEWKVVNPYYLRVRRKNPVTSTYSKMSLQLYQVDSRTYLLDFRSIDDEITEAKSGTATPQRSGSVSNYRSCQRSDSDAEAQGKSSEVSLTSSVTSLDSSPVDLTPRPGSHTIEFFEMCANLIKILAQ
UniProt Q9P2K8: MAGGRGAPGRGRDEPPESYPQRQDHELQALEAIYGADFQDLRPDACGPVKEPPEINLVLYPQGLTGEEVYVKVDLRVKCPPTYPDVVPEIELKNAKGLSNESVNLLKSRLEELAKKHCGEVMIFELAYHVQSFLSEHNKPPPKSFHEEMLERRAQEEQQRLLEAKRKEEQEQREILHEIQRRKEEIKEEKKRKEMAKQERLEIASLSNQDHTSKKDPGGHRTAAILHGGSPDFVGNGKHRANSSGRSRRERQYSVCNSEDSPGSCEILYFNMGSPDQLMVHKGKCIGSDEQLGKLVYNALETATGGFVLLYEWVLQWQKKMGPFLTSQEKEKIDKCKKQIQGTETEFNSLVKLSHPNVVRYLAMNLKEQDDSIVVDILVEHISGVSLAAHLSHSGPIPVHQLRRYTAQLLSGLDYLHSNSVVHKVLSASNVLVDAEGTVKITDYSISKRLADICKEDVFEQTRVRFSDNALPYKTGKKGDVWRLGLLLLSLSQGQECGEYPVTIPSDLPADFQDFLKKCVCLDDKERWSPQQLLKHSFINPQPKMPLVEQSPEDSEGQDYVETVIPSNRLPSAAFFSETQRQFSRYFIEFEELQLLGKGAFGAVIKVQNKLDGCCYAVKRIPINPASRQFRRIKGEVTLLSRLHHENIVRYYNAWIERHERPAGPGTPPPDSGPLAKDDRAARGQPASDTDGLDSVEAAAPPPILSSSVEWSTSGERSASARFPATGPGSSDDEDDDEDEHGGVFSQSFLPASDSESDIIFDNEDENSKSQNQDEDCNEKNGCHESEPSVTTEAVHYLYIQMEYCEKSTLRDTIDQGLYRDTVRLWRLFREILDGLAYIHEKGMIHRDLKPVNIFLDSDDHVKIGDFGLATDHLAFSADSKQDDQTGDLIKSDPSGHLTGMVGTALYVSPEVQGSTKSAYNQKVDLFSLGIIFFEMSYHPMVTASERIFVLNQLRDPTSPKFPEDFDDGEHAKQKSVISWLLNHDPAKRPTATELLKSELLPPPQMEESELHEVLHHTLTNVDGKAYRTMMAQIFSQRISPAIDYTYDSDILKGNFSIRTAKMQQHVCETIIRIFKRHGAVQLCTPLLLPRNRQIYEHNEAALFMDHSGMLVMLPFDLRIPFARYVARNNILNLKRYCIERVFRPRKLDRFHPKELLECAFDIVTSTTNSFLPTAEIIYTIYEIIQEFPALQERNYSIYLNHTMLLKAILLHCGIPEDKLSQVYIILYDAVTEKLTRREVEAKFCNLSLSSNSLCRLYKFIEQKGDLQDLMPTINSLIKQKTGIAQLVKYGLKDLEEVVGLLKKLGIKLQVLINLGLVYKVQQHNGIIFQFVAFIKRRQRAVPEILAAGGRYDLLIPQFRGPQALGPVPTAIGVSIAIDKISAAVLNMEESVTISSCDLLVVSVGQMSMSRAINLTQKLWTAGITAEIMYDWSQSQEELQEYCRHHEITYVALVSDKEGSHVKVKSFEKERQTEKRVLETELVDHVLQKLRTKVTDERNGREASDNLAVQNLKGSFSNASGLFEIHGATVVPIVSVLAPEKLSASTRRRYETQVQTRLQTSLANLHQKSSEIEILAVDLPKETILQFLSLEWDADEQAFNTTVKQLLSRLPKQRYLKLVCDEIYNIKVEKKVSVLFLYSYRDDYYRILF

Tests used:
[1] = target: Non-receptor tyrosine-protein kinase TYK2 (Homo sapiens) (UniProt P29597); experiment: Inhibition of human TYK2 assessed as enzyme activity using FITC-geldanamycin as substrate at 30 uM pre-incubated for 30 min followed by 3 hrs incubation by fluorescence polarization based method relative to control; parameters: scale not given: the % may be the effect or the level left; conditions: time 210.0 min
[2] = target: T1, [Pyruvate dehydrogenase (acetyl-transferring)] kinase isozyme 2, mitochondrial (Homo sapiens, UniProt Q15119); experiment: Binding affinity to human PDHK2 expressed in permeabilized HEK293 cells at 30 uM for 2 hrs by NanoBRET target engagement assay; format: cell-based
[3] = target: AMP-activated protein kinase alpha-2/beta-2/gamma-2 (Homo sapiens) (UniProt P54646+O43741+Q9UGJ0); experiment: Inhibition of human AMPK(alpha2/beta2/gamma2) assessed as enzyme activity using FITC-geldanamycin as substrate at 30 uM pre-incubated for 30 min followed by 3 hrs incubation by fluorescence polarization based method relative to control; format: protein-complex assay; parameters: scale not given: the % may be the effect or the level left; conditions: time 210.0 min
[4] = target: T2, [Pyruvate dehydrogenase (acetyl-transferring)] kinase isozyme 4, mitochondrial (Homo sapiens, UniProt Q16654); experiment: Inhibition of PDHK4 in human A549 cells in PDH phosphorylation at Ser293 residue at 50 uM by immunoblotting analysis; format: cell-based; conditions: time 1-24 hrs
[5] = target: Tyrosine-protein kinase BTK (Homo sapiens) (UniProt Q06187); experiment: Inhibition of human BTK assessed as enzyme activity using FITC-geldanamycin as substrate at 30 uM pre-incubated for 30 min followed by 3 hrs incubation by fluorescence polarization based method relative to control; parameters: scale not given: the % may be the effect or the level left; conditions: time 210.0 min
[6] = target: T3, Eukaryotic translation initiation factor 2-alpha kinase 3 (Homo sapiens) (UniProt Q9NZJ5); experiment: Inhibition of human EIF2AK3 assessed as enzyme activity using FITC-geldanamycin as substrate at 30 uM pre-incubated for 30 min followed by 3 hrs incubation by fluorescence polarization based method relative to control; parameters: scale not given: the % may be the effect or the level left; conditions: time 210.0 min
T3 sequence (whole entry): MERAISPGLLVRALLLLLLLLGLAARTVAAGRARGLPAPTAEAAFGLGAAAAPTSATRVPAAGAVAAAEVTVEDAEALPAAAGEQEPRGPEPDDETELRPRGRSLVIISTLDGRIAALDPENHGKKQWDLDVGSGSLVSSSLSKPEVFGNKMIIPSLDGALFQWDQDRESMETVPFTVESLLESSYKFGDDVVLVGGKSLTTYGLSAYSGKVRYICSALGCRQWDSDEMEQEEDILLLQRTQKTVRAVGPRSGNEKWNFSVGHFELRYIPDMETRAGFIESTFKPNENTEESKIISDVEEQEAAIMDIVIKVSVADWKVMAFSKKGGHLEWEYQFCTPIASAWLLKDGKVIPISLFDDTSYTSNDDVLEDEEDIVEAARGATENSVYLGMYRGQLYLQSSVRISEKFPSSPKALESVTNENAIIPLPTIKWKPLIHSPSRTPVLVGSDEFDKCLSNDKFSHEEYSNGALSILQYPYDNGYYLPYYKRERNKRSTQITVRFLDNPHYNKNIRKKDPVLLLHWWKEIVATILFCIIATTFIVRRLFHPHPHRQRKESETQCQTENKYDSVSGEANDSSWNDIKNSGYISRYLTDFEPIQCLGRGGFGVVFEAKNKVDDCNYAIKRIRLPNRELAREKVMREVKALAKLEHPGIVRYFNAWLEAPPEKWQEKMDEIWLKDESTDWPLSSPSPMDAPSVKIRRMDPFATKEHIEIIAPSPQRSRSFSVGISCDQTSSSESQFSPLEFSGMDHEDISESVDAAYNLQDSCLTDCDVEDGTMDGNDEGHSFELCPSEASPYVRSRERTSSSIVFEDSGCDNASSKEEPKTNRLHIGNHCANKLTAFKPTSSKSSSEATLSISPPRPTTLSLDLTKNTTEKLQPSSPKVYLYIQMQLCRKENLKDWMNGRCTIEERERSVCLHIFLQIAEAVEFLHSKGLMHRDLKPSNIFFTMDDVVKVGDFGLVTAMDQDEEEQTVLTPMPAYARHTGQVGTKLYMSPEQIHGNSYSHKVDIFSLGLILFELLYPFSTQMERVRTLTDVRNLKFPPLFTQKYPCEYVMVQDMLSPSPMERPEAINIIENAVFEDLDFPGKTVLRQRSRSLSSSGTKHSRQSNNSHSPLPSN

[7] = target: T4, [Pyruvate dehydrogenase (acetyl-transferring)] kinase isozyme 3, mitochondrial (Homo sapiens, UniProt Q15120); experiment: Binding affinity to human PDHK3 expressed in permeabilized HEK293 cells at 30 uM for 2 hrs by NanoBRET target engagement assay; format: cell-based
[8] = target: AMP-activated protein kinase (AMPK) alpha-1/beta-1/gamma-1 (Homo sapiens) (UniProt P54619+Q9Y478+Q13131); experiment: Inhibition of human AMPK(alpha1/beta1/gamma1) assessed as enzyme activity using FITC-geldanamycin as substrate at 30 uM pre-incubated for 30 min followed by 3 hrs incubation by fluorescence polarization based method relative to control; format: protein-complex assay; parameters: scale not given: the % may be the effect or the level left
[9] = target: T5, Eukaryotic elongation factor 2 kinase (Homo sapiens) (UniProt O00418); experiment: Inhibition of human EEF2K assessed as enzyme activity using FITC-geldanamycin as substrate at 30 uM pre-incubated for 30 min followed by 3 hrs incubation by fluorescence polarization based method relative to control; parameters: scale not given: the % may be the effect or the level left; conditions: time 210.0 min
T5 sequence (whole entry): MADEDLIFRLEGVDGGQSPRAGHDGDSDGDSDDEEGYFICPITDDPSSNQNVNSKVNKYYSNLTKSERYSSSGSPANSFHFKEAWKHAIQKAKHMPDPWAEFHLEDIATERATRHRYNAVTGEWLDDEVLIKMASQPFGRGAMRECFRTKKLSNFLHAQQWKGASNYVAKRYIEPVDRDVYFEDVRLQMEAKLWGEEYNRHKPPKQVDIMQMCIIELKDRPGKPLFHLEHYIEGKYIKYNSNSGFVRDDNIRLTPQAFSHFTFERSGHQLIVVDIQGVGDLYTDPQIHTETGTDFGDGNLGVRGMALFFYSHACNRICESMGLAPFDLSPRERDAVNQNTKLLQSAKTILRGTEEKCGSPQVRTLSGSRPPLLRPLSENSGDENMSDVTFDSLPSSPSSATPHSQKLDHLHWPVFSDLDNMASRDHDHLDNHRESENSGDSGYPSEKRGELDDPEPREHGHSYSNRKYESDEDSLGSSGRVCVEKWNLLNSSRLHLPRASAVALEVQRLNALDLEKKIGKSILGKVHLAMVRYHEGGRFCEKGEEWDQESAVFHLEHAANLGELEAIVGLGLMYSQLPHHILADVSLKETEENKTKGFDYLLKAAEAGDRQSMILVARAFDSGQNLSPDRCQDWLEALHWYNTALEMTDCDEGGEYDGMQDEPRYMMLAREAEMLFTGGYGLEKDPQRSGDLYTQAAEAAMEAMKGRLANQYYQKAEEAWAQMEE

[10] = target: T2, [Pyruvate dehydrogenase (acetyl-transferring)] kinase isozyme 4, mitochondrial; experiment: Binding affinity to human PDHK4 expressed in permeabilized HEK293 cells at 30 uM for 2 hrs by NanoBRET target engagement assay; format: cell-based
[11] = target: T4, [Pyruvate dehydrogenase (acetyl-transferring)] kinase isozyme 3, mitochondrial; experiment: Inhibition of PDHK3 in human A549 cells in PDH phosphorylation at Ser293 residue at 50 uM by immunoblotting analysis; format: cell-based; conditions: time 1-24 hrs
[12] = target: AMP-activated protein kinase alpha-1/beta-2/gamma-3 (Homo sapiens) (UniProt O43741+Q13131+Q9UGI9); experiment: Inhibition of human AMPK(alpha1/beta2/gamma3) assessed as enzyme activity using FITC-geldanamycin as substrate at 30 uM pre-incubated for 30 min followed by 3 hrs incubation by fluorescence polarization based method relative to control; format: protein-complex assay; parameters: scale not given: the % may be the effect or the level left; conditions: time 210.0 min
[13] = target: eIF-2-alpha kinase GCN2 (Homo sapiens) (UniProt Q9P2K8); experiment: Inhibition of human EIF2AK4 assessed as enzyme activity using FITC-geldanamycin as substrate at 30 uM pre-incubated for 30 min followed by 3 hrs incubation by fluorescence polarization based method relative to control; parameters: scale not given: the % may be the effect or the level left; conditions: time 210.0 min
[14] = target: Serine/threonine-protein kinase mTOR (Homo sapiens) (UniProt P42345); experiment: Inhibition of human mTOR/FRAP1 assessed as enzyme activity using FITC-geldanamycin as substrate at 30 uM pre-incubated for 30 min followed by 3 hrs incubation by fluorescence polarization based method relative to control; parameters: scale not given: the % may be the effect or the level left
[15] = target: Transient receptor potential cation channel subfamily M member 7 (Homo sapiens) (UniProt Q96QT4); experiment: Inhibition of human TRPM7/CHAK1 assessed as enzyme activity using FITC-geldanamycin as substrate at 30 uM pre-incubated for 30 min followed by 3 hrs incubation by fluorescence polarization based method relative to control; parameters: scale not given: the % may be the effect or the level left; conditions: time 210.0 min
[16] = target: Heat shock protein HSP 90-alpha (Homo sapiens) (UniProt P07900); experiment: Inhibition of human Hsp90alpha assessed as enzyme activity using FITC-geldanamycin as substrate at 30 uM pre-incubated for 30 min followed by 3 hrs incubation by fluorescence polarization based method relative to control; parameters: scale not given: the % may be the effect or the level left; conditions: time 210.0 min
[17] = target: T1, [Pyruvate dehydrogenase (acetyl-transferring)] kinase isozyme 2, mitochondrial; experiment: Inhibition of PDHK2 in human A549 cells in PDH phosphorylation at Ser293 residue at 50 uM by immunoblotting analysis; format: cell-based; conditions: time 1-24 hrs

Activity [1]: 87.9% | Activity [2]: No effect | Activity [3]: 100% | Activity [4]: inactive | Activity [5]: 81.3% | Activity [6]: 102% | Activity [7]: No effect | Activity [8]: 101% | Activity [9]: 95.2% | Activity [10]: No effect | Activity [11]: inactive | Activity [12]: 97.4% | Activity [13]: 104% | Activity [14]: 94.8% | Activity [15]: 101% | Activity [16]: 102% | Activity [17]: inactive
Structure (SMILES): Cc1ccc(Cl)cc1S(=O)(=O)Nc1cc(C(=O)O)ccc1Br
